{"sequences": {"note": "Sequences of proteins named here, by UniProt entry; tags and fusion partners are left off. A change or cut given only in a name is not applied to a line headed by its entry.", "UniProt P30305": "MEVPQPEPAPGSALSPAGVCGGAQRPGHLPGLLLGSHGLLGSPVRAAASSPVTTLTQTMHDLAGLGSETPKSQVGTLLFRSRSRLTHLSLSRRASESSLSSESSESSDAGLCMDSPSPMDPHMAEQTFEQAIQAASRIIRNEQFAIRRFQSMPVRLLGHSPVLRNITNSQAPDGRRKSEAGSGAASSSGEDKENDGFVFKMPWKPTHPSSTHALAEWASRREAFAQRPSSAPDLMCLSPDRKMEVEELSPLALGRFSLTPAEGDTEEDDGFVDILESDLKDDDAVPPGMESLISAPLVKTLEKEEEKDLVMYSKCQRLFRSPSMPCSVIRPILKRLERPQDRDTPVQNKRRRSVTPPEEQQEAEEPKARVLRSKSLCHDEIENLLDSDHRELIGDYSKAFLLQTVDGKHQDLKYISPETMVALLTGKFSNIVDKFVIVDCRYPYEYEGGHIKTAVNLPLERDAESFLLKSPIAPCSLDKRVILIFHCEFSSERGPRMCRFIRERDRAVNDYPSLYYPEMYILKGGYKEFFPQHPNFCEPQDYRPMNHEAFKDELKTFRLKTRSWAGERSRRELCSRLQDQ"}, "source": "patent US20140121237A1", "about": "“Methods for Inhibiting Virus Replication” (priority 2011, published 2014)", "biological_target": "CDC25B (Homo sapiens, UniProt P30305)", "test": "Western blot of CDC25B protein in BEAS2B cells (Example 1)", "settings": "anti-CDC25B antibody", "data": [{"substance": "2,3-bis-[2-hydroxyethylsulfanyl]-[1,4]naphthoquinone", "values": [{"measurement": "amount of CDC25B protein (65 KDa band)", "value": "decreased the amount of CDC25B protein"}]}]}
